# Yeast mating assay 1: variants of the scFv Ab-14

Source: Engelhart et al. 2022 (doi:10.1038/s41597-022-01779-4), MIT Lincoln Laboratory and A-Alpha Bio; data file from the FLAb repository.

Target: peptide PDVDLGDISGINAS, taken from heptad repeat 2 (HR2) of SARS-CoV-2 spike.

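In library AAYL50, one, two or three CDR residues were substituted; doubles and triples were drawn at random. AlphaSeq pools MATa yeast showing the antibodies with MATalpha yeast showing the peptide. Binding brings cells together so that they mate, and sequencing counts the barcode pairs among the diploids. Scores were corrected for input abundance and mapped to Kd with protein pairs of known affinity run in the same pool. The assay was run in three technical replicates.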

Parent scFv Ab-14: VH joined to VL by a 15-residue (Gly4Ser)3 linker. Changes lie in the light chain CDRs alone.
VH: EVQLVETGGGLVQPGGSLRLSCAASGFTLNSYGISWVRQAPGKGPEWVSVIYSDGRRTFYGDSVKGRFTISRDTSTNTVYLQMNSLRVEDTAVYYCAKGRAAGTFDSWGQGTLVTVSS
VL: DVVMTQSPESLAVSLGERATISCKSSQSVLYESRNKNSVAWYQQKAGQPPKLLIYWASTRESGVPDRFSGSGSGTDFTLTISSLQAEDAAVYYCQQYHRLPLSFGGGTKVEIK

The parent's light chain CDRs are KSSQSVLYESRNKNSVA, WASTRES, QQYHRLPLS; each variant's own CDRs replace them letter for letter. Scale: log10 of Kd in nM, estimated from mating counts; low values are strong binders. The mean shown is taken over the replicates in which the pair was detected. "n.d." means that the variant was in the library but no mating with the target was seen in that replicate; the authors take this as a sign of poor binding, and no number exists. Order: sorted from the lowest average up, undetected variants last. Three control strains display no target. For library AAYL50, 18% of the pairings with them gave a signal, with a median of 4.19 and one signal in twenty below 2.99, so weak values seen in few replicates may be background.

CDR-L1,CDR-L2,CDR-L3,log10 Kd (nM) by replicate,"mean, log10 nM"
KSSQSVLYESRNKNSVA,WANTRES,QRYHELPLS,0.54 0.56 0.50,0.53
KSSQSVLAESRNKNSVA,WASTRET,QEYHRLPLS,0.63 0.88 0.70,0.74
KSSQSVEYESRNKNSVA,WASTREK,QQYVRLPLS,0.62 1.01 0.87,0.83
KSSQSVLYESRNKNSVA,WASTRES,QQWPRLPLS,0.88 1.08 1.04,1.00
KSSQSVLYESRNKNSVA,EASTRNS,QQYHNLPLS,0.89 1.12 1.05,1.02
KSSQSVLWESRNKNSVA,WASTREH,QQYHRLPLS,1.28 0.96 0.94,1.06
KSSQSVLYESRNKNSVA,WASMRES,QQYHNLPLS,0.97 1.19 1.09,1.08
KSSQSMLYESRNKNSVA,WASTRWS,QQYHRNPLS,1.30 1.33 1.74,1.46
KHSASVLYESRNKNSVA,WASTRES,QQYHRLPLT,1.37 1.53 1.57,1.49
KSSQSVLYESRNIDSMA,WASTRES,QQYHRLPLS,1.51 1.49 1.75,1.58
KSSQSVLHESRNKNSVA,WAFTRES,QQKHRLPLS,1.64 1.59 1.64,1.62
KSSQSVLYESRAKNSVA,WQSTRES,QQYHHLPLS,1.93 1.83 1.65,1.80
KSSQSVVYESRNKNSVA,CASTRES,QQYHLLPLS,2.16 1.77 1.84,1.92
KSSQSVIYESRNKNSVA,WASTRES,QQYHRKPLS,2.18 2.11 2.04,2.11
KSSQSVLQESRSKNSVA,WASTRDS,QQYHRLPLS,2.05 2.36 1.98,2.13
KSSQSVLYESYNKNSVA,WAFTRES,QQYDRLPLS,2.56 2.35 2.26,2.39
KSSQHVLYPSRNKNSVA,WASTRES,QQYHRLPDS,2.70 3.16 2.30,2.72
KSSQSVLYLSRCKNSVA,WASTRSS,QQYHRLPLS,1.99 2.17 4.10,2.75
VSSQSVLYESRNKNSVA,WASTKGS,QQYHRLPLS,3.55 2.40 3.16,3.04
KSSQSVLYESRNKNFVA,WASTRES,QQYHRMPLS,n.d. n.d. 3.05,3.05
KSSQSVLVEMRNKNSVA,WQSTRES,QQYHRLPLS,n.d. 3.75 3.00,3.38

Second part, the sequence after the result:

log10 Kd (nM) by replicate,"mean, log10 nM",CDR-L1,CDR-L2,CDR-L3
3.55 n.d. n.d.,3.55,KSSQSVLYESRNKNSVA,WCSMRES,QQYHRLPFS
3.64 n.d. n.d.,3.64,KSSQSVLYESRNKNSVG,WAVTREG,QQYHRLPLS
2.99 3.81 4.17,3.66,KSSQWVLYYSRNKNSVA,CASTRES,QQYHRLPLS
3.82 n.d. n.d.,3.82,KSSQSELYESRNKNSVA,WASTPES,QQYHRLPAS
n.d. 4.25 n.d.,4.25,KSFQSVLYESRNKNSVA,WADTRES,QQTHRLPLS
n.d. n.d. 4.29,4.29,KSSESVLYVSRNKNSVA,WASTRES,QQYHRTPLS
4.32 n.d. n.d.,4.32,KSSQSVLGESRNKNSVA,MASTYES,QQYHRLPLS
n.d. 4.85 4.00,4.42,CSSQSVLYESCNKNEVA,WASTRES,QQYHRLPLS
n.d. n.d. 4.56,4.56,KSSQYVLYESRNKNSVA,WASTRES,QQDHRLPLV
5.07 4.39 4.68,4.72,KSSMSVLYKSRNKNSVA,WASTRES,VQYHRLPLS
n.d. 4.07 5.51,4.79,KSSQSVLYESRNKNSVA,WASTRES,MQYHRLPPS
n.d. n.d. 5.03,5.03,KSSQSVLYRSRNKPSVA,FASTRES,QQYHRLPLS
5.99 n.d. n.d.,5.99,KSSQSVLYESRNKNSVA,WASTREQ,QQYCRLILS
n.d. n.d. n.d.,n.d.,KSSQSVLYESRNKCSVA,WAKTRES,QQYHRPPLS
n.d. n.d. n.d.,n.d.,SSSQSVLYDSRNKNSVA,WASTRES,QQYHPLPLS
n.d. n.d. n.d.,n.d.,KSSQSVLYESREKISVA,WASTRES,QQYHRLPLQ
n.d. n.d. n.d.,n.d.,KSAQSVLYESRNKNSVA,WAITREW,QQYHRLPLS
n.d. n.d. n.d.,n.d.,KSSQSVPTESRNKNSVA,WASTRES,QQYHRLALS
n.d. n.d. n.d.,n.d.,KSSQSVLYESRNKNSVA,WASQRES,QYRHRLPLS
n.d. n.d. n.d.,n.d.,KSSQSVLNEPRNKNVVA,WASTRES,QQYHRLPLS
n.d. n.d. n.d.,n.d.,KSSQSVLYESRNKNDVA,WASTPES,NQYHRLPLS

Picked from the list: the 4 lowest averages where every replicate gave a value.

CDR-L1,CDR-L2,CDR-L3,log10 Kd (nM) by replicate,"mean, log10 nM"
KSSQSVLYESRNKNSVA,WANTRES,QRYHELPLS,0.54 0.56 0.50,0.53
KSSQSVLAESRNKNSVA,WASTRET,QEYHRLPLS,0.63 0.88 0.70,0.74
KSSQSVEYESRNKNSVA,WASTREK,QQYVRLPLS,0.62 1.01 0.87,0.83
KSSQSVLYESRNKNSVA,WASTRES,QQWPRLPLS,0.88 1.08 1.04,1.00

Parent in this assay: reference entry 0.65, copy in this library 1.68.